Data published in US6964966B2 (dated 2005).
In brackets after ≈: the same amount, converted by molar mass.

tested on: Fluoroquinolone Sensitive Strains; assay: In-vitro antimicrobial test, MIC by two-fold serial agar dilution (NCCLS): fluoroquinolone sensitive strains (Table 17); format: cell-based

Row | Structure (SMILES) | MIC, P. aeruginosa 27853 [µg/mL]
1 | COc1c(N2CCC(N)C(C)(C)C2)c(F)cc2c(=O)c(C(=O)O)cn(C3CC3)c12 (racemic) [Compound 18, (±)-1-Cyclopropyl-6-fluoro-1,4-dihydro-8-mehtoxy-7-(4-amino-3,3-dimethyl-1-piperidinyl)-4-oxo-quinoline-3-carboxylic acid] | 6.25 (≈ 15.5 µM)
2 | COc1c(N2CCC(N)C(C)(C)C2)c(F)cc2c(=O)c(C(=O)O)cn(C3CC3)c12 (single isomer, unassigned; (+)) [Compound 19, (+)-1-Cyclopropyl-6-fluoro-1,4-dihydro-8-mehtoxy-7-(4-amino-3,3-dimethyl-1-piperidinyl)-4-oxo-quinoline-3-carboxylic acid] | 6.25 (≈ 15.5 µM)
3 | COc1c(N2CCC(N)C(C)(C)C2)c(F)cc2c(=O)c(C(=O)O)cn(C3CC3)c12 (single isomer, unassigned; (-)) [Compound 20, (−)-1-Cyclopropyl-6-fluoro-1,4-dihydro-8-mehtoxy-7-(4-amino-3,3-dimethyl-1-piperidinyl)-4-oxo-quinoline-3-carboxylic acid] | 6.25 (≈ 15.5 µM)
